Reference: patent publication US10844023B2 (Washington University, priority 2017, dated 2020)

What was measured:
Mfn2 null MEFs = assay: Mitochondrial elongation (aspect ratio) fusogenicity assay; assay type: cell-based, mouse; design: % long compare to B: dose or concentration left out as unconfirmed
[1] = tested on: Mfn1/Mfn2 double null MEFs; assay: Mitochondrial elongation in Mfn1/Mfn2 double null MEFs; assay type: cell-based, mouse

SMILES: CC(Sc1nnc(C2CC2)n1-c1ccccc1)C(=O)Nc1sc2c(c1C(N)=O)CCC2 (stereo not drawn) [B01, 2-{2-[(5-cyclopropyl-4-phenyl-4H-1,2,4-triazol-3-yl)sulfanyl]propana-mido}-4H,5H,6H-cyclopenta[b]thiophene-3-carboxamide]
- % long compare to B (Mfn2 null MEFs; mitochondrial elongation relative to Cpd B (B01 = 100), Mfn2 null MEFs, compound overnight as printed (FIG. 48)): 100%

SMILES: CC(Sc1nnc(C2CC2)n1-c1ccccc1)C(=O)Nc1sc2c(c1C(N)=O)CCC2 (stereo not drawn) [B1, 2-{2-[(5-cyclopropyl-4-phenyl-4H-1,2,4-triazol-3-yl)sulfanyl]propanamido}-4H,5H,6H-cyclopenta[b]thiophene-3-carboxamide]
- Fusogenicity Rank (Mfn2 null MEFs; rank order of aspect ratio among 44 soluble library compounds): 2

SMILES: CC(Sc1nnc(C2CC2)n1-c1ccccc1)C(=O)Nc1sc2c(c1C(N)=O)CCC2 (stereo not drawn) [Cpd B, 2-{2-[(5-cyclopropyl-4-phenyl-4H-1,2,4-triazol-3-yl)sulfanyl]-propanamido}-4H, 5H,6H-cyclopenta[b]-thiophene-3-carboxamide]
- Mitochondrial elongation in absence of both mitofusins [1]: did not occur in the absence of both of their mitofusin targets
